Measurements from US8993566B2, “Quinoline compound composing 1,2,4-triazine-dione and use thereof” (Wuhan Shengyun Biopharma Co., Ltd., priority 2012, dated 2015).

Amino acid sequences for entries named in this document (tags omitted). Residues count along the entry.
UniProt P08581, 956-1390: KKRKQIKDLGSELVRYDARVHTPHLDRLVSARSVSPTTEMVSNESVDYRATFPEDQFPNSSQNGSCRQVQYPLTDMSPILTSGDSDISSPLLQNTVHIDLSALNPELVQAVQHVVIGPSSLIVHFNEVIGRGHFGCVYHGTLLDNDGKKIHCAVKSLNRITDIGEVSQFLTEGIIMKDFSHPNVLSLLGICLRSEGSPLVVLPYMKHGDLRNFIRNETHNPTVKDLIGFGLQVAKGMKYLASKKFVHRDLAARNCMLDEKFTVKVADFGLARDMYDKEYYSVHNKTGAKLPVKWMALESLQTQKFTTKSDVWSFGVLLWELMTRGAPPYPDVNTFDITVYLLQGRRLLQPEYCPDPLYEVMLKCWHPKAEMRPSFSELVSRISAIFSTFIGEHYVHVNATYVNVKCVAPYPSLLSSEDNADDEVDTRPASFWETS

Molecular target: T1, c-Met kinase (His-tagged recombinant human Met (amino acids 974-end)) (Homo sapiens, UniProt P08581)
T1 construct: His-tagged recombinant human Met (amino acids 974-end); His
Experiment: c-Met Enzyme Activity Inhibition Assay (ELISA)
Assay type: biochemical
Conditions: 50 pM c-Met, 5 μM ATP, room temperature 20 min
Method: c-Met Enzyme Activity Inhibition Assay
The assay for the determination of c-Met kinase activity is based on an enzyme linked immunosorbant assay (ELISA). A compound of Formula I, 50 pM c-Met (His-tagged recombinant human Met (amino acids 974-end), expressed by baculovirus), and 5 μM ATP in an assay buffer (25 mM MOPS, pH 7.4, 5 mM MgCl2, […], 100 μM sodium orthovanadate, 0.01% Triton X-100, 1 mM DTT, final DMSO concentration 1% (v/v)) were incubated on a plate coated with 0.25 mg/mL POT at room temperature for 20 min. The reaction mixture was removed by washing and the phosphorylated polymer substrate was detected with 0.2 μg/mL phosphotyrosine specific monoclonal antibody (PY20) conjugated to horseradish peroxidase (HRP). After the addition of 1M phosphoric acid to stop the development, the chromogenic substrate (TMB) color was quantitated by spectrophotometry at 450 nm.

Substance	IC50 for inhibiting c-Met kinase [µg/mL]
N-[3-fluoro-4-[6-methoxy-7-[3-(1-piperidinyl)propyloxy]quinolin]-4-oxy]phenyl]-2-phenyl-4-benzyl-3,5-dicarbonyl-2,3,4,5-tetrahydro-1,2,4-triazine-6-carboxamide [Example 46]	8.2
N-[3-fluoro-4-[6-methoxy-7-[3-(4-morpholinyl)propyloxy]quinolin]-4-oxy]phenyl]-2-(2,4-dichlorophenyl)-4-benzyl-3,5-dicarbonyl-2,3,4,5-tetrahydro-1,2,4-triazine-6-carboxamide [Example 43]	3.8
